# Yeast mating assay B: variants of the scFv Ab-14

Source: Li et al. 2023 (doi:10.1038/s41467-023-39022-2), MIT Lincoln Laboratory and A-Alpha Bio; data file from the FLAb repository.

Binding partner: SARS-CoV-2 spike HR2 peptide, sequence PDVDLGDISGINAS.

Ab-14 is the parent antibody, in scFv form: VH, then three GGGGS repeats, then VL. The light chain is unchanged in all variants.
VH: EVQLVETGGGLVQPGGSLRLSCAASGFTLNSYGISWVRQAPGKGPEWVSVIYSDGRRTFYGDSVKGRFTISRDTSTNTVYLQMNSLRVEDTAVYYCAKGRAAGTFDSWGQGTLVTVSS
VL: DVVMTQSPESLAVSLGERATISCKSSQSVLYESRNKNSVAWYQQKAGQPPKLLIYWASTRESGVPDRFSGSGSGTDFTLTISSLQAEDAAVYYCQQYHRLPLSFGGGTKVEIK

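The starting antibody came from a phage panning campaign against this peptide. These sequences belong to a second round, designed from the earlier measurements on random variants of the parent. Several design methods are mixed in this list. The assay is AlphaSeq: two haploid yeast populations carry antibody and antigen on their surface. Pairs that bind mate more often; barcode pairs of the diploids are counted by sequencing. Read counts were normalised to the haploid input and turned into Kd by a linear fit to BCL2-family pairs of known affinity, for each replicate. The assay was run in six technical replicates.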

Each variant is given by its three heavy chain CDRs, as the data file delimits them; those of the parent are GFTLNSYGIS, VIYSDGRRTFYGDSVK, GRAAGTFDS.
Scale: log10 of Kd in nM, estimated from mating counts; low values are strong binders.
Averages over replicates are reported, and they cover detected replicates only.
Where no diploid with the target was found in any replicate, the entry reads "not detected": below detection, most likely a poor binder, though not proof of it.

CDR-H1 | CDR-H2 | CDR-H3 | log10 Kd (nM), mean | replicates with signal
GFTLNDYGIS | VIYADGRRTFYSDKVK | GRAAGTFDT | -0.76 | 6/6
GFTLNDYGIS | VIYSDGRRTFYADSVK | GRAAGTFVS | 1.06 | 4/6
GFDLDEYGIS | VIYADGQRTAYADSVK | GSNAGTFDV | -0.08 | 5/6
GFNLNEYGIS | VIYADGVRTFYADSVK | GEHAGTFDI | 0.58 | 4/6
GFTLNSYGIS | VIYSDGRRTFYGDDVK | GRAAGTFDW | 1.56 | 4/6
GFTLNEYGIS | VIYSDGRRTFYSDSVK | GRAAGQFDS | 1.50 | 5/6
GFDLNEYGIS | VIYADGVRTAYTDSVK | GNAAGTFDV | -0.93 | 6/6
GFDLNEYGIS | VIYADGMRTSYSDSVK | GNVAGTFDL | -0.09 | 6/6
GFTLNSYGIS | VIYSDGRRTNVSDSVK | GRAGGTEDS | not detected | 0/6
GFTLTKYGIS | VIYSDGRRTFYGDKVK | GGAMGTFDV | not detected | 0/6
GFNLDEYGIS | VIYADGRRTFYADSVK | GEGAGTFDF | 1.52 | 6/6
GFDLDEYGIS | VIYADGTRSGYTANVK | GEAAGITMF | not detected | 0/6
GFTVNSYGIS | VIYADGRRTFYGDKVK | GRAAGTFDS | -0.04 | 6/6
GFNLDEYGIS | VIYADGRRTFYADSVK | GSNAGTFDT | -0.57 | 6/6
GFDINEYGIS | VIYADGIRTSYANKFK | GDSGGIINF | not detected | 0/6
GFDLNSYGIS | VIYSDGRRTFYGDNVK | GKNAGTFDS | 0.10 | 6/6
GFALNEYGIS | VIYADGFRRAYTDKVK | GVLVGNFSS | not detected | 0/6
GFDLEDYGIS | VIYADGKRTAYADSVK | GEVAGTFDV | -0.39 | 6/6
GFDLDEYGIS | VIYADGRRTAYADSVK | GQNAGTFDM | -0.72 | 6/6
GFGLDEFGIS | VIYADGLRSSYVDDVK | GELTGGFIV | not detected | 0/6
WFTLNEYGIS | VIYSDGRRTFYTDSVK | GRFAGTFDS | 3.01 | 3/6
GFDLNEYGIS | VIYADGVRTQYIDSVK | GNQAGTFDS | 0.03 | 5/6
GFDLNEYGIS | VIYADGKRTFYADSVK | GNNAGTFDV | -0.59 | 6/6
GFNLDEYGIS | VIYADGRRTFYTDDVK | GEFAGTFDL | -0.25 | 6/6
GEDLLEIGIS | VIYADGKRVAYTNAVK | GNEAGVFTL | not detected | 0/6
GFDLNSYGIS | VIYSDGRRTFYVDSVK | GEAAGTFDT | -0.21 | 2/6
GFTLNSYGIS | VIYADGYRTFYGDSVK | GQAIITFSS | not detected | 0/6
GETLRSYGIS | VIYSDGRRTFYDDSVK | GRSAGTFDS | 2.36 | 6/6
GFELNCYGIS | VIYSDGKRTFYGDSVK | GRTAGTFDS | 1.75 | 3/6
KFSLNSYGIS | VIYSDGRRTFYIDSVK | GRNAGTFDS | 2.12 | 1/6
GFDLNSYGIS | VYYSDGRRTFYGDSVK | GRAAGWFNS | not detected | 0/6
GFDLNEYGIS | VIYADGKRTFYVDSVK | GENAGTFDV | -0.20 | 6/6
GFNLDEMGIS | VIYADGSRQVYADSFK | GHFGGNKLN | not detected | 0/6
GFTLNSYGIS | VIYSDGLRTFYGDSVK | GRIAGTFDS | 1.75 | 6/6
GFDLEDYGIS | VIYADGRRTAYSDSVK | GENAGTFDV | 1.09 | 6/6
GMDLGEYGIS | VIYADGERASYTNNFK | GVNAGFLTV | 1.82 | 1/6
GSGLDEYGIS | VIYADGMRTAYKNSVK | GSFTYVMFV | not detected | 0/6
GFDLNSYGIS | VIYSDGRRTFYADSVK | GKAAGTFDA | -0.30 | 6/6
GFTLDSYGIS | VIYSDGRRTFYGDSVK | GSAAGTFDS | 0.98 | 6/6
GMDLSEYGIS | VIYADGMRTYASDSVK | GDMGGNLLY | not detected | 0/6
GFDLNEYGIS | VIYADGLRTAYADNVK | GEVAGTFDV | -0.52 | 6/6
GFDLNSYGIS | VIYSDGKRTFYGDSVK | GRAAGTFDS | 0.05 | 6/6
GFTLLSYGIS | VIYSDGHRTFYGDSVK | GRAAGTFDS | 1.36 | 4/6
GFDLEEYGIS | VIYADGRRTFYTDSVK | GETAGTFDV | -0.55 | 6/6
GFDLNEYGIS | VIYADGVRTFYADSVK | GKNAGTFDQ | -0.62 | 6/6
GFSLNSYGIS | VIYSDGRRTFYDDKVK | GRAAGTFDS | 0.68 | 6/6
GENLSDYGIS | VIYSDGRRTFYGDDVK | GRRAHTFDT | 2.03 | 1/6
GFTLNDYGIS | VIYADGRRTFYGDSVK | GKAAGTFIS | 0.10 | 6/6
GFWLNEYGIS | VIYSDGRRTFYEDDVK | GRTAGTFDS | -0.44 | 3/6
GFDVMEYGIS | VIYADGLRTQYANSVK | GGLETDFFV | not detected | 0/6
GFDLNEYGIS | VIYADGVRTAYSDSVK | GENAGTFDL | -0.20 | 6/6
GFTLNSYGIS | VIYSDGRRTFYIDTVK | GNAAGTFDS | 1.43 | 5/6
YFDLNSYGIS | VIYSDGRRTFYADSVK | GRNAGTFDS | 0.31 | 6/6
GFNLNSYGIS | VIYSDGRRTFYKDDVK | GQAAGTFDS | 1.25 | 5/6
GFKLNSYGIS | VIYSDGRRTFYTDSVK | GNEAGTFDS | 0.12 | 6/6
GETLNSYGIS | VIYSDGRRTFYLDSVR | GRAAGTFDS | 1.06 | 1/6
GFDLNEYGIS | VIYADGMRTAYADSVK | GQNAGTFDM | -0.56 | 6/6
GFDLEDYGIS | VIYADGRRTAYADSVK | GQNAGTFDV | 0.19 | 6/6
GFTPNSYGIS | VIYSDGRRTFYGDSVK | GRAGGTFDS | not detected | 0/6
GFELNSYGIS | VIYSDGRRTFYADDVK | GKAAGTFDS | 0.33 | 6/6
GNDLNEYGIS | VIYADGLRVMYAENVK | GQLDVVVLV | not detected | 0/6
GFTINSYGIS | VIYSDGMRTFYNDSVK | GRAAGIFDQ | not detected | 0/6
GFDLEEYGIS | VIYADGMRTAYTDSVK | GNVAGTFDL | -0.40 | 6/6
GFTLESYGIS | VIYADGRRTFYGDSVK | GRAAGTFDW | 2.12 | 5/6
HFSLNSYGIS | VIYSDGRRTFYADSVK | GREAGTFDS | 0.28 | 6/6

Excerpt, the final 10 entries:

{"CDR-H1": "GETLNSYGIS", "CDR-H2": "VIYSDGRRTFYLDSVR", "CDR-H3": "GRAAGTFDS", "log10 Kd (nM), mean": "1.06", "replicates with signal": "1/6"}
{"CDR-H1": "GFDLNEYGIS", "CDR-H2": "VIYADGMRTAYADSVK", "CDR-H3": "GQNAGTFDM", "log10 Kd (nM), mean": "-0.56", "replicates with signal": "6/6"}
{"CDR-H1": "GFDLEDYGIS", "CDR-H2": "VIYADGRRTAYADSVK", "CDR-H3": "GQNAGTFDV", "log10 Kd (nM), mean": "0.19", "replicates with signal": "6/6"}
{"CDR-H1": "GFTPNSYGIS", "CDR-H2": "VIYSDGRRTFYGDSVK", "CDR-H3": "GRAGGTFDS", "log10 Kd (nM), mean": "not detected", "replicates with signal": "0/6"}
{"CDR-H1": "GFELNSYGIS", "CDR-H2": "VIYSDGRRTFYADDVK", "CDR-H3": "GKAAGTFDS", "log10 Kd (nM), mean": "0.33", "replicates with signal": "6/6"}
{"CDR-H1": "GNDLNEYGIS", "CDR-H2": "VIYADGLRVMYAENVK", "CDR-H3": "GQLDVVVLV", "log10 Kd (nM), mean": "not detected", "replicates with signal": "0/6"}
{"CDR-H1": "GFTINSYGIS", "CDR-H2": "VIYSDGMRTFYNDSVK", "CDR-H3": "GRAAGIFDQ", "log10 Kd (nM), mean": "not detected", "replicates with signal": "0/6"}
{"CDR-H1": "GFDLEEYGIS", "CDR-H2": "VIYADGMRTAYTDSVK", "CDR-H3": "GNVAGTFDL", "log10 Kd (nM), mean": "-0.40", "replicates with signal": "6/6"}
{"CDR-H1": "GFTLESYGIS", "CDR-H2": "VIYADGRRTFYGDSVK", "CDR-H3": "GRAAGTFDW", "log10 Kd (nM), mean": "2.12", "replicates with signal": "5/6"}
{"CDR-H1": "HFSLNSYGIS", "CDR-H2": "VIYSDGRRTFYADSVK", "CDR-H3": "GREAGTFDS", "log10 Kd (nM), mean": "0.28", "replicates with signal": "6/6"}

Nonspecific signal, from three strains lacking the peptide, appeared in 1% of pairings of all heavy chain designs, centred on 2.08 (5% of these signals below 0.84); values are not corrected for it.
The authors averaged sequences with at least three values out of six and counted those with two or fewer as poor binders.
Values of this round are not directly comparable with the first-round values of the same sequences.